Reference: US12264170B2, “Antimicrobial organosilanes” (TOPIKOS SCIENTIFIC, INC., priority 2019, dated 2025)

Conditions: product dissolved in water, observation

## CCCCCCCCCCCCCCCCCC[N+](C)(C)CCC[Si](OCC(CO)(CO)NCC(=O)[O-])(OCC(CO)(CO)NCC(=O)[O-])OCC(CO)(CO)NCC(=O)O.[Cl-].[Na+].[Na+] [Example 10, Disodium, 7-(2-((carboxymethyl)amino)-3-hydroxy-2-(hydroxymethyl)propoxy)-7-(3-(dimethyl(octadecyl)ammonio)propyl)-4,4,10,10-tetrakis(hydroxymethyl)-6,8-dioxa-3,11-diaza-7-silatridecanedioate; chloride]
  stability in water: soon formed a suspension
